Amino acid sequences for entries named in this document (tags omitted).
UniProt P30966, whole entry: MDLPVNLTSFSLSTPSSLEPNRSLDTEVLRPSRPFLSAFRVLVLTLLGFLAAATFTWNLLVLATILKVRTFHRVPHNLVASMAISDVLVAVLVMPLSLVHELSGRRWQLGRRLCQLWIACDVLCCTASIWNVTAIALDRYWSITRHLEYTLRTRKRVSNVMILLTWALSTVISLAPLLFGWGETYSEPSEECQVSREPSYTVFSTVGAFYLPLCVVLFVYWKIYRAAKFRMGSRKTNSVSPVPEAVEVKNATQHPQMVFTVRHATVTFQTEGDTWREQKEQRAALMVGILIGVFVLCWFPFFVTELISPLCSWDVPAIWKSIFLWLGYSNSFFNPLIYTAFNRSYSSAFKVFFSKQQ

According to BindingDB's records for doi:10.1016/0014-5793(95)01389-x (Max-Planck-Institut, 1995):

Biological target: 5-hydroxytryptamine receptor 5A (Mus musculus, UniProt P30966)

SMILES: NCCc1c[nH]c2ccc(O)cc12 [[3H]-5-HT]
- Ki: 1100 nM
